In PubChem BioAssay (NCATS):
Where “and” joins values, the source holds several entries; their conditions need not be identical. Equal entries are not always repeated. The entries are a selection whose mix differs from that of the whole data set. Inconclusive results are not listed. Calls of active or inactive are those of the source. Unless noted, the call rests on the fitted dose curve.

Protein sequences, listed by entry. Tags and fused reporters are not part of them.
UniProt Q03181, whole entry: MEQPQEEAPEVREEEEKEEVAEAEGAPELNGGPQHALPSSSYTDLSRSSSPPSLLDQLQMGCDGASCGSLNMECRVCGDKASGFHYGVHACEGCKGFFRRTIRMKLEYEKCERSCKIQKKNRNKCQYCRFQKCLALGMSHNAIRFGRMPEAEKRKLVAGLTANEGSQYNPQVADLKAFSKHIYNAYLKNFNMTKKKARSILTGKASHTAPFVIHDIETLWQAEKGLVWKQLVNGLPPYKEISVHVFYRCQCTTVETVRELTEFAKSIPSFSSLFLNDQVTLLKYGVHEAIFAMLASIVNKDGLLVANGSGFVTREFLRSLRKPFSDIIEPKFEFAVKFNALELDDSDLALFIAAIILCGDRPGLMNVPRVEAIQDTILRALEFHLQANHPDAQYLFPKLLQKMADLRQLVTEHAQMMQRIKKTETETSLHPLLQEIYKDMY
UniProt P10828, whole entry: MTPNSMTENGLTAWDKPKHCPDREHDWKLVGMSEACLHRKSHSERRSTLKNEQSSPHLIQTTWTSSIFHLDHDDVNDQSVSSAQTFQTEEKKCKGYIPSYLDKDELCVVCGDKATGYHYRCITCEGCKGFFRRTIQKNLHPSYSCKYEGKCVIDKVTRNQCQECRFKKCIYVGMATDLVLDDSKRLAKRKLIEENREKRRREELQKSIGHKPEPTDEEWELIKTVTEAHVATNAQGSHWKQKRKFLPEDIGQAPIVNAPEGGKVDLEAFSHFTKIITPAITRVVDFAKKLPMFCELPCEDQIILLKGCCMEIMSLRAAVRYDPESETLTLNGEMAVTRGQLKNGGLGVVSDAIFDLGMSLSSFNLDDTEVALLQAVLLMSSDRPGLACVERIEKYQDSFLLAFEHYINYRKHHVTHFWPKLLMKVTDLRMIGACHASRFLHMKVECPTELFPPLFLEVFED

Tests used:
[1] = target: Peroxisome proliferator-activated receptor delta (Homo sapiens) (UniProt Q03181); assay: qHTS assay for small molecule agonists of peroxisome proliferator-activated receptor delta signaling (AID 588534); settings: HEK293T PPARdelta-UAS-bla, beta-lactamase ratio, 18 h; at 76.7 µM (top of the series);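 further: 0% = DMSO basal wells and 100% = positive control agonist at 10 µM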
[2] = target: Peroxisome proliferator-activated receptor delta (Homo sapiens) (UniProt Q03181); assay: qHTS assay for small molecule antagonists of peroxisome proliferator-activated receptor delta signaling (AID 588535; active means well fitted inhibition curve with a large enough effect in the signal ratio, with a control signal flat, not every such curve was filed as active; the % refers to the signal ratio); settings: HEK293T PPARd-UAS-bla, beta-lactamase FRET ratio, 18 h; at 76.7 µM (top of the series)
[3] = target: Peroxisome proliferator-activated receptor gamma (Homo sapiens) (UniProt P37231); assay: qHTS assay for small molecule agonists of peroxisome proliferator-activated receptor gamma signaling (AID 588536; active means well fitted curve in the direction sought with a large enough effect in the signal ratio, with a control signal flat, not every such curve was filed as active; the % refers to the signal ratio;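 further: 0% = DMSO basal wells and 100% = rosiglitazone at 2 µM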); settings: HEK293 PPARg-UAS-bla, beta-lactamase ratio, 16 h, percent of rosiglitazone response, DMSO as zero; at 76.7 µM (top of the series)
Method in brief: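 GeneBLAzer PPAR-gamma-UAS-bla HEK293 cells in 1% charcoal/dextran-treated FBS medium were treated 16 h at 37 C with compounds. Beta-lactamase activity was read by CCF4 ratio (460/530 nm). Response was normalized to 2 uM rosiglitazone (100%) and DMSO, then Hill-fitted for EC50 and efficacy.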

[4] = target: Peroxisome proliferator-activated receptor gamma (Homo sapiens) (UniProt P37231); assay: qHTS assay for small molecule antagonists of peroxisome proliferator-activated receptor gamma signaling (AID 588537; active means well fitted inhibition curve with a large enough effect in the signal ratio, with a control signal flat, not every such curve was filed as active; the % refers to the signal ratio;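 further: reporter cells co-stimulated with 50 nM rosiglitazone agonist during compound treatment; % of control where 0% means no effect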); settings: HEK293 PPARg-UAS-bla, beta-lactamase ratio, antagonist mode; at 76.8 µM (top of the series)
Text: (§1) NIH Chemical Genomics Center [NCGC]
(§2) U.S. Environmental Protection Agency [EPA]
(§3) National Institutes of Environmental Health Sciences [NIEHS]
(§4) National Toxicology Program [NTP]
The Peroxisome proliferator-activated receptors (PPARs) are lipid-activated transcription factors of the nuclear receptor superfamily with three distinct subtypes namely PPAR alpha, PPAR delta (also called PPAR beta) and PPAR gamma. All these subtypes heterodimerizes with Retinoid X receptor (RXR) and these heterodimers regulate transcription of various genes. PPAR-gamma (glitazone receptor) ligands have been used in the treatment of type 2 diabetes and dyslipidaemia. It is involved in the regulation of glucose and lipid metabolism. PPAR-gamma activates certain genes like Paraoxonase 1 which is responsible for hydrolyzing organophosphates. […]
Using a beta-lactamase reporter-gene under control of Peroxisome Proliferator-Activated-gamma (PPAR-gamma) response element, a cell-based assay [GeneBLAzer PPAR-gamma-UAS-bla assay developed by Invitrogen] was used to measure PPAR-gamma ligands signaling. […] Library compounds were measured for their ability to inhibit the reporter gene activity. […] The fluorescence intensity (405 nm excitation, 460/530 nm emission) was measured using an EnVision plate reader. […]
(§5) 9. Detection; Fluorescence; Envision plate reader

[5] = target: Retinoic acid receptor RXR-alpha (Homo sapiens) (UniProt P19793); assay: qHTS assay for small molecule agonists of retinoid X receptor alpha signaling (AID 588544); settings: HEK293T RXRa-UAS-bla, beta-lactamase reporter, 18 h; at 76.7 µM (top of the series);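 further: 0% = DMSO basal wells and 100% = reference agonist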
[6] = target: Thyroid hormone receptor beta (Homo sapiens) (UniProt P10828); assay: qHTS assay for small molecule agonists of thyroid hormone receptor beta signaling (AID 588545); settings: TR-UAS-bla GripTite HEK 293, beta-lactamase ratio, agonist mode, 18 h, percent of T3 response, DMSO as zero; at 76.7 µM (top of the series);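 further: 0% = DMSO only and 100% = 10 nM T3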
Method in brief: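 TR-UAS-bla-GripTite HEK 293 cells in medium with 2% charcoal/dextran FBS, 0.1 mM NEAA and 1 mM sodium pyruvate were treated with titrated compounds for 18 hrs at 37 C. Beta-lactamase reporter was read with CCF4 dye (ex 405, em 460/530 nm); EC50 from Hill fits.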

[7] = target: Retinoic acid receptor RXR-alpha (Homo sapiens) (UniProt P19793); assay: qHTS assay for small molecule antagonists of retinoid X receptor alpha signaling (AID 588546; active means well fitted inhibition curve with a large enough effect in the signal ratio, with a control signal flat, not every such curve was filed as active; the % refers to the signal ratio;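 further: cells stimulated with 9-cis-retinoic acid as agonist; on the % scale 0 is the no-effect control and ±100 the full control effect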); settings: HEK293T RXRa-UAS-bla, beta-lactamase ratio, antagonist mode
Method in brief: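 Beta-lactamase reporter inhibition, read as CCF4 fluorescence ratio (ex 405, em 460/530 nm) after 2 h at RT. HEK293T UAS-bla cells, 2500/well, were stimulated with 9-cis-RA at 500 or 100 nM final alongside test compound for 18 h at 37 C.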

[8] = target: Glucocorticoid receptor (Homo sapiens) (UniProt P04150); assay: qHTS assay for small molecule antagonists of glucocorticoid receptor signaling (AID 588533; active means well fitted inhibition curve with a large enough effect in the signal ratio, with a control signal flat, not every such curve was filed as active; the % refers to the signal ratio;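 further: cells stimulated with 2 nM dexamethasone as agonist; on the % scale 0 is the no-effect control and ±100 the full control effect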); settings: HeLa MMTV-bla, GRE beta-lactamase ratio, antagonist mode, 18 h; at 76.8 µM (top of the series)
[9] = target: Vitamin D3 receptor (Homo sapiens) (UniProt P11473); assay: qHTS assay for small molecule antagonists of vitamin D receptor signaling (AID 588541); settings: HEK293T VDR-UAS-bla, beta-lactamase ratio, antagonist mode; at 76.7 µM (top of the series);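 further: receptor activated by calcitriol during compound treatment; on the % scale 0 is the no-effect control and ±100 the full control effect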
Text: as §1, §2, §3, §4
The Vitamin D receptor (VDR) is a member of nuclear hormone receptor superfamily and it plays a critical role in calcium homeostasis and bone metabolism. It plays a role in inducing cell differentiation, inhibiting cell growth and in thrombogenicity. So, VDR that mediates these effects represents a pharmacological target in prevention and treatment of hyperproliferative malignancies, such as cancer and psoriasis, cardiovascular, immunological, inflammatory and renal diseases etc.
NCGC Assay Protocol Summary
Using a beta-lactamase reporter-gene under control of Vitamin D receptor (VDR) response element, a cell-based assay [GeneBLAzer (VDR -UAS-bla assay developed by Invitrogen] was used to measure VDR ligands signaling. GeneBLAzer VDR -UAS-bla HEK293T cells were used with assay medium containing 2% charcoal-stripped FBS. The assay was performed in clear bottom black Greiner 1536-well plates. Library compounds were measured for their ability to inhibit the reporter gene activity. Compounds were screened in a titration series in 1536-well format. The fluorescence intensity (405 nm excitation, 460/530 nm emission) was measured using an EnVision plate reader. […]
as §5

[10] = target: Vitamin D3 receptor (Homo sapiens) (UniProt P11473); assay: qHTS assay for small molecule agonists of vitamin D receptor signaling (AID 588543); settings: HEK293T VDR-UAS-bla, beta-lactamase ratio, 16 h; at 76.8 µM (top of the series);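 further: 0% = DMSO basal and 100% = reference agonist control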
Method in brief: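 VDR-UAS-bla HEK293T cells, 2000/well, 2% charcoal-stripped FBS; compound titration 16 h at 37 C; CCF4 beta-lactamase ratio read. Normalized to 50 nM 1-alpha,25-dihydroxyvitamin D3 (100%) and DMSO; Hill fit gives EC50, efficacy.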

CCOP(=O)(Cl)Cl
inactive: activation [1] 9.85% and 1.7% | activity change, negative = inhibition [2] -18.8% and -1.44% | activation [3] -1.03% and -0.252% | activity, negative = inhibition [4] -13.6% and 10.1% | activation [5] -5.07% and 13.9% | activation [6] -0.421% and -2.36% | max response [7] -9.82%

ClCCOP(OCCCl)OCCCl
inactive: activity change, negative = inhibition [8] -23.6% | activation [1] 16.4% | activity change, negative = inhibition [2] -15.4% | activation [3] 3.06% | activity, negative = inhibition [4] -4.04% | activity change, negative = inhibition [9] -0.313% | activation [10] 2.33% | activation [5] -3.03% | activation [6] -21.3% | max response [7] -2.68%

O=[N+]([O-])c1ccccc1[N+](=O)[O-]
inactive: activity change, negative = inhibition [8] -0.496% | activity change, negative = inhibition [2] -14% | activity change, negative = inhibition [9] -1.44% | activation [10] -3.41% | activation [6] -9.65% | max response [7] -8.12%
